Molecular target: T1, human α4β2δ GABAA receptors (Homo sapiens, UniProt P47870+P48169)
T1 construct: expressed in transfected cells; host or cells: Xenopus laevis oocytes injected with cRNA, 5:1:5 (α4:β2:δ)
Assay: two-electrode voltage clamp of α4β2δ GABAA receptors expressed in Xenopus laevis oocytes (RAD model analysis)
Assay type: cell-based
Description: The human α4β2δ GABAA receptors were expressed in Xenopus laevis oocytes. Harvesting of oocytes was conducted under the Guide for the Care and Use of Laboratory Animals as adopted and promulgated by the National Institutes of Health. The animal protocol was approved by the Animal Studies Committee of Washington University in St. Louis (Approval No. 20170071).
The cDNAs of individual subunits in the pcDNA3 vector were linearized with Xba I (NEB Labs, Ipswich, MA). The cRNAs were generated using mMessage mMachine (Ambion, Austin, TX). The oocytes were injected with a total of 11 ng cRNA per oocyte in a 5:1:5 (α4:β2:δ) ratio. Following injection, the oocytes were incubated in bath solution (96 mM NaCl, 2 mM KCl, 1.8 mM CaCl2, 1 mM MgCl2, and 5 mM HEPES; pH 7.4) plus supplements (2.5 mM Na pyruvate, 100 U/ml penicillin, 100 μg/ml streptomycin, and 50 μg/ml gentamycin) at 15 °C for 3–4 days prior to conducting electrophysiological recordings.
The recordings were conducted at room temperature using standard two-electrode voltage clamp. […]
In such cases, the number of cell provided is given as a range of cell numbers for each concentration point. […] The level of constitutive activity was determined by exposing the cells to 100–300 μM picrotoxin.
The current traces were analyzed using Clampfit (Molecular Devices) to determine the amplitudes of peak and steady-state responses. […]

Protein sequences, listed by entry. Tags and fused reporters are not part of them. Lines headed by an entry give the natural chain unless they say otherwise; changes in a name come on top. Residues count along the entry.
UniProt P47870, 25-512 limits assumed: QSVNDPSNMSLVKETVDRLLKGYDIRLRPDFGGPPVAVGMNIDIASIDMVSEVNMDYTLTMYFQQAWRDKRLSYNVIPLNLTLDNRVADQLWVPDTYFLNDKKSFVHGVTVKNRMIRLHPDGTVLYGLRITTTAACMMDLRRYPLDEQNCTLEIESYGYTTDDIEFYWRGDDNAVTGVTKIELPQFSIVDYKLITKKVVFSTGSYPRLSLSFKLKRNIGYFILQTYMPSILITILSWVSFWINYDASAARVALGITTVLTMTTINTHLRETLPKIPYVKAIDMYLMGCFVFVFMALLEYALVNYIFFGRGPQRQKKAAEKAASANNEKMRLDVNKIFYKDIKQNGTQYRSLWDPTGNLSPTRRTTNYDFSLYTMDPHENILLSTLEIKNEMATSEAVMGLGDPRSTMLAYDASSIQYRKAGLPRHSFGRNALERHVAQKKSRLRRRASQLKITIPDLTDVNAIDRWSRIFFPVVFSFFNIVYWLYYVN
UniProt P48169, 36-554: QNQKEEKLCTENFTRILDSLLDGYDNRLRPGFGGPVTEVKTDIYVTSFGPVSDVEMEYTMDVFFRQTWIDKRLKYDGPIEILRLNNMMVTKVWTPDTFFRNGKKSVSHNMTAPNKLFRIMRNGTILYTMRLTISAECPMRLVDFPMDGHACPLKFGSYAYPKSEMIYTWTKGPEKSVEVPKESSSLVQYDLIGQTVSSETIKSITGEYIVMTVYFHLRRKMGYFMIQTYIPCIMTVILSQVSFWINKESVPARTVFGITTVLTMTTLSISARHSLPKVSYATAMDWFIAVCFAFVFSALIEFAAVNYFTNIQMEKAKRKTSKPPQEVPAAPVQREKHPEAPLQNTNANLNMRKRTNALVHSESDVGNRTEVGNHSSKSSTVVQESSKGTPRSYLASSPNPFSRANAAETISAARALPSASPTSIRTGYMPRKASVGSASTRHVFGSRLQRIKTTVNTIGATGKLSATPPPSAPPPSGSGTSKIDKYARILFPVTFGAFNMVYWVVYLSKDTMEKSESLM

Question: With pregnenolone sulfate [PS] as the substance, how does the IC50 (inhibition of steady-state current elicited by 0.3 μM GABA) read?
Answer: The IC50 was 1.4 ± 0.3 µM.

Question: What about the Kd (read-out: KPS, equilibrium dissociation constant of the resting and active receptors, fit to Eq. (3), 0.3 μM GABA, 1 site) of the same substance?
Answer: Its Kd is 2.6 ± 0.6 µM.

From publication PMC6831628, “Steady-state activation of the high-affinity isoform of the α4β2δ GABAA receptor” (Scientific Reports, 2019)
